Literature values in US11229595B2, “Skin barrier preparation and method therefor” (Johnson & Johnson Consumer Inc., priority 2019, dated 2022).

Conditions: caffeine, topical delivery; Dias M et al. Int J Pharm 1999

In the case of `Cn1c(=O)c2c(ncn2C)n(C)c1=O` [caffeine], the permeability coefficient kp is given as 0.0322 ×10⁻⁶ cm/s.
